From patent US7498335B2 come the findings set out here.

Protein sequences, listed by entry. Tags and fused reporters are not part of them. Residues count along the entry.
UniProt P35968, 786-1356 limits assumed: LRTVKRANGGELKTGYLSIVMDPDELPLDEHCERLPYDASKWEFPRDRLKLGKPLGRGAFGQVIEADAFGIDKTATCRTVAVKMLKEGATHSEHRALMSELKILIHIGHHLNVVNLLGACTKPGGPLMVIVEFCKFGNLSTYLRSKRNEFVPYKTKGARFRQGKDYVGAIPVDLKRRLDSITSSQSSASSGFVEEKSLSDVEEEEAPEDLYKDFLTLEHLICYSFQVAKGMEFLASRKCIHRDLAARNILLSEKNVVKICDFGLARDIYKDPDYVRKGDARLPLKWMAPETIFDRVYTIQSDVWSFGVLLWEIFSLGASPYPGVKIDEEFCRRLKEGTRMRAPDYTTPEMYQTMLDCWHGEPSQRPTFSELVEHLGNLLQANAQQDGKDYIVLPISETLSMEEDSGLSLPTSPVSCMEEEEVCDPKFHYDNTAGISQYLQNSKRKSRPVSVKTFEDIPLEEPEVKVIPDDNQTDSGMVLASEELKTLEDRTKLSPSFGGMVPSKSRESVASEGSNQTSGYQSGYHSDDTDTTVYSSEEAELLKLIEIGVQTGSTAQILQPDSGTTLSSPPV
UniProt P17948, 781-1338 limits assumed: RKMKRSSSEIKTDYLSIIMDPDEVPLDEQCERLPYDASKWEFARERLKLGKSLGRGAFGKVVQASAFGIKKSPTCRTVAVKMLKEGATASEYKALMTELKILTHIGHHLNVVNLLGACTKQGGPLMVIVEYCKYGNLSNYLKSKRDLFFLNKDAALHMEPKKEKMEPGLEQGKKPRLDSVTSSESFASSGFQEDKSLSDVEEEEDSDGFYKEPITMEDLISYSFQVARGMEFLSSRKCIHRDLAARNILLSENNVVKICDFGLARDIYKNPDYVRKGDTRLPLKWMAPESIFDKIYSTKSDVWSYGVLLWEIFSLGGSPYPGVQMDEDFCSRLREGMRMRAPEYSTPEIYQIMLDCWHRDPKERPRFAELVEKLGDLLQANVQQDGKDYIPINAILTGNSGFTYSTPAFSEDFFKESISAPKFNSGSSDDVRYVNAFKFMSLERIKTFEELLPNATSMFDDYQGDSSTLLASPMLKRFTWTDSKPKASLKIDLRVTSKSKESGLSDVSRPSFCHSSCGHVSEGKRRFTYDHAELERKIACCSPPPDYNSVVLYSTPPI

For orientation: IC50 means the midpoint of a concentration-inhibition curve.

The target of one assay is KDR receptor (Homo sapiens, UniProt P35968). Put plainly: In vitro receptor tyrosine kinase inhibition test (a), KDR receptor. The conditions noted are these: read-out: IC50 using the KDR receptor. The text has this:
(§1) This assay determines the ability of a test compound to inhibit tyrosine kinase activity. DNA encoding VEGF or epidermal growth factor (EGF) receptor cytoplasmic domains may be obtained by total gene synthesis (Edwards M, International Biotechnology Lab 5(3), 19-25, 1987) or by cloning. These may then be expressed in a suitable expression system to obtain polypeptide with tyrosine kinase activity. […] In the case of the VEGF receptor Flt (Genbank accession number X51602), a 1.7 kb DNA fragment encoding most of the cytoplasmic domain, commencing with methionine 783 and including the termination codon, described by Shibuya et al (Oncogene, 1990, 5: 519-524), was isolated from cDNA and cloned into a baculovirus transplacement vector (for example pAcYM1 (see The Baculovirus Expression System: A Laboratory Guide, L. A King and R. D. Possee, Chapman and Hall, 1992) or pAc360 or pBlueBacHis (available from Invitrogen Corporation)). This recombinant construct was co-transfected into insect cells (for example Spodoptera frugiperda 21(Sf21)) with viral DNA (eg Pharmingen BaculoGold) to prepare recombinant baculovirus. […]

The test system of assay [1] is human umbilical vein endothelial cells (HUVEC). Put plainly: In vitro HUVEC proliferation assay (b). The conditions noted are these: test (b) with VEGF as the growth factor. The procedure: This assay determines the ability of a test compound to inhibit the growth factor-stimulated proliferation of human umbilical vein endothelial cells (HUVEC).
HUVEC cells were isolated in MCDB 131 (Gibco BRL) +7.5% v/v foetal calf serum (FCS) and were plated out (at passage 2 to 8), in MCDB 131+2% v/v FCS+3 μg/ml heparin+1 μg/ml hydrocortisone, at a concentration of 1000 cells/well in 96 well plates. After a minimum of 4 hours they were dosed with the appropriate growth factor (i.e. VEGF 3 ng/ml, EGF 3 ng/ml or b-FGF 0.3 ng/ml) and compound. The cultures were then incubated for 4 days at 37° C. with 7.5% carbon dioxide. On day 4 the cultures were pulsed with 1 μCi/well of tritiated-thymidine (Amersham product TRA 61) and incubated for 4 hours. The cells were harvested using a 96-well plate harvester (Tomtek) and then assayed for incorporation of tritium with a Beta plate counter. Incorporation of radioactivity into cells, expressed as cpm, was used to measure inhibition of growth factor-stimulated cell proliferation by compounds.

Another assay concerns the target VEGF receptor Flt (Homo sapiens, UniProt P17948). Put plainly: In vitro receptor tyrosine kinase inhibition test (a), Flt receptor. Particulars: read-out: IC50 using the Flt receptor.
Description: as §1

As for `COc1cc2c(NC(=O)Nc3ccccc3Cl)ncnc2cc1OCC1CCN(C)CC1`, the values for the half-maximal inhibitory concentration (IC50) (at KDR receptor; in assay [1]; on VEGF receptor Flt) were 15 to 50 nM, 50 nM and 400 to 1200 nM, respectively.
